Data reported in patent US5840720A (priority 1995, dated 1998).

Tested on: isolated guinea-pig right and left atrium
Experiment: hCGRP-induced beating and tension of isolated guinea-pig atria
Settings: cumulative hCGRP
Method: FIG. 7 Cumulative concentration-response curves for the chronotropic effects of hCGRP in the absence and presence of CAPBZ (50 μM) and benzocaine (10 μM) on spontaneous beatings of guinea-pig right atria. Each value is the mean±S.E.M. of six experiments.
E. Ineffective effect on CGRP releasing in the isolated atrium
These effects were not inhibited by compound 1 (CAPBZ).

## hCGRP: hCGRP (ACDTATCVTHRLAGLLSRSGGVVKNNFVPTNVGSKAF; Calcitonin gene-related peptide 1; UniProt P06881 83-119, looked up) [reference compound]
  effect of hCGRP on beating and tension: increased the beating in the right atrium and the tension in the electrically driven left atrium
